{
  "source": "paper PMC7262777",
  "about": "(Journal of medicinal chemistry, 2020)",
  "tested_on": "D3R-expressing dopaminergic neurons derived from human iPSCs",
  "test": "MTT cell viability, protection from 6-OHDA-induced cell death",
  "conditions": "24 h pretreatment, 30 μM 6-OHDA 24 h",
  "data": [
    {"smiles": "COc1ccc(OCCN2CCN(C(=O)c3cc4ccccc4[nH]3)CC2)cc1", "note": "[Compound 20, (1H-Indol-2-yl)(4-(2-(4-methoxyphenoxy)ethyl)piperazin-1-yl)methanone]", "values": [
      {"measurement": "concentration giving maximal reduction in 6-OHDA-induced cell death", "result": 500, "unit": "nM"},
      {"measurement": "concentration giving significant reduction in 6-OHDA-induced cell death", "result": 50, "unit": "nM"}
    ]}
  ]
}
